The record followed here is patent US20240190864A1 (YA THERAPEUTICS INC, priority 2021, published 2024).

The chains behind the UniProt entries cited, without tags or fusion partners. Where a name states a change or a piece, a line headed by the entry shows the natural chain unless it says otherwise.
UniProt Q06187: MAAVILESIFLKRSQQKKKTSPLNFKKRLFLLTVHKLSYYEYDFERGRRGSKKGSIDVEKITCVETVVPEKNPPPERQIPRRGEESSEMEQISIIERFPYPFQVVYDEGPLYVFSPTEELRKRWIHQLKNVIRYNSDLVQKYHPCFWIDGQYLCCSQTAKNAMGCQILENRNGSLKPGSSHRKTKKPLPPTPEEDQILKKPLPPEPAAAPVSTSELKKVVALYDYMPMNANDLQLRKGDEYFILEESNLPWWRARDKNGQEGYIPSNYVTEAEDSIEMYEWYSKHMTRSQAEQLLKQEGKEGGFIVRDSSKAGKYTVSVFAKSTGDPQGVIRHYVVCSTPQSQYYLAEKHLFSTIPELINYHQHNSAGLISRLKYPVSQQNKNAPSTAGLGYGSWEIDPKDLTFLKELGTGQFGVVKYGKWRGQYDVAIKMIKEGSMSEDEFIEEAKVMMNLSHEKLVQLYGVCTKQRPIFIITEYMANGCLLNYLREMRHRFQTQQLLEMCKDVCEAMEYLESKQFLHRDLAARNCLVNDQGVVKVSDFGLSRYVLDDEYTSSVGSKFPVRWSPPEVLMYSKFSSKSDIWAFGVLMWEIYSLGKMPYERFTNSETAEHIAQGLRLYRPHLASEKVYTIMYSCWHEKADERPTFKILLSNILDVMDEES

The target in the assay is BTK (Homo sapiens, UniProt Q06187). Put plainly: BTK Kinase Test. In kind it is biochemical. Particulars: BTK kinase inhibitory activity; enzyme with compound 30 min, ATP 50 μM, ULight poly GT substrate. As to the method:
Dilute 350 ng/uL BTK mother solution with kinase buffer solution (50 mM HEPES, 10 mM MgCl2, 2 mM DTT, 1 mM EGTA, 0.01% Tween 20), and add 6 μL 1.67×0.134 ng/μL working solution (final concentration 0.08 ng/μL), using the nanoliter sampler, add different compounds dissolved by DMSO into the pores, so that the final concentration of the compound is 1000 nM-0.244 nM, and the final concentration of the positive drug is 50 nM-0.0122 nM. Four times the gradient, a total of seven concentrations are available. At the same time, set up blank control pores (without enzyme) and negative control pores (with enzyme, with solvent DMSO), and set up two double pores. After the enzyme reacts with compound or solvent for 30 min, 5×250 μM ATP (final concentration is 50 μM) and 5×0.5 μM Substrate (final concentration 0.1 μμM. ULight poly GT), mix at 1:1, 4 per hole μL is added into the hole; after sealing, add […] to each hole after reacting at room temperature for 2 hours μL 4×8 nM detection reagent (final concentration is 2 nM, Ab), incubate at room temperature for 1 hour; PE instrument reading board (excitation […], emission 665 nm). Calculate the inhibition rate and calculate the IC50 value.

For the substance “(S)-4-(1-acryloylpiperidin-3-yl)-2-oxo-6-(4-phenoxyphenyl)-2,3-dihydro-1H-imidazo[4,5-c]pyridine-8-carboxamide [Compound 21]”, the IC50 is ≤ 10 nM.

For orientation: IC50 means the concentration that inhibits the measured activity by half.
